Some of the results follow.
These compounds were tested on A. baumannii ATCC 17978 (assay: relative growth (fraction of control); higher = less inhibition). Conditions: 50 µM.

Question: Which relative growth does the source give for `O=C(C[C@@H]1C=C[C@H](NS(=O)(=O)c2ccc(F)cc2)[C@H](CO)O1)NCCN1CCCCC1` here?
Answer: 0.945

Question: How did the relative growth turn out when `COc1ccc(-c2cc(=O)c3c(OC)c(OC)c(OC)c(OC)c3o2)cc1` was run?
Answer: 1.25

Question: `CC(=O)OCC1=C[C@@H]2OC(=O)C3=CO[C@@H](O[C@H]4O[C@H](CO)[C@@H](O)[C@H](O)[C@H]4O)[C@H]1[C@@H]32` was tested. Which relative growth did it give?
Answer: 1.12

Question: Which relative growth does the source give for `O=C(C[C@H]1CC[C@H]2[C@@H](COC[C@@H](O)CN2C(=O)c2ccncc2)O1)NC1CCC1` here?
Answer: 0.9

Question: How did the relative growth turn out when `CCCCNc1ccc(C(=O)OCCN(C)C)cc1.Cl` was run?
Answer: 0.807

Question: With `O=C(C[C@H]1CC[C@H]2[C@@H](COC[C@@H](O)CN2S(=O)(=O)c2ccccc2)O1)N1CCOCC1` as the compound, how does the relative growth read?
Answer: 0.993

Question: For `CN(C)CCCCNC(=O)[C@@H]1C[C@@H]2C(=O)N[C@@H](CCCCN(C)C)C(=O)N2[C@@H]1c1cccc(OCCO)c1`, which relative growth is on record?
Answer: 0.976

Question: With `CN1C[C@H](O)COC[C@H]2O[C@@H](CC(=O)N3CCN(c4ccccc4)CC3)CC[C@@H]21` as the compound, how does the relative growth read?
Answer: 1.12

Question: How did the relative growth turn out when `Oc1cc(O)c2cc(O)c(-c3ccc(O)c(O)c3)[o+]c2c1.[Cl-]` was run?
Answer: 0.927

Question: With `CS(C)(=O)=O` as the compound, how does the relative growth read?
Answer: 1.08

Question: `NC[C@H]1CCN(c2ccc(Oc3ccccc3)cc2)C1` was tested. Which relative growth did it give?
Answer: 0.978

Question: With `C#C[C@]1(O)CC[C@H]2[C@@H]3CCC4=Cc5oncc5C[C@]4(C)[C@H]3CC[C@@]21C` as the compound, how does the relative growth read?
Answer: 1.12

Question: Which relative growth does the source give for `COC(=O)CCCCCCC(=O)NN` here?
Answer: 0.965

Question: For `C[C@H](CO)N1C[C@H](C)[C@H](CN(C)C(=O)C2CCCCC2)Oc2cc(Br)ccc2S1(=O)=O`, which relative growth is on record?
Answer: 0.86

Question: With `CC(C)=CCCC(C)[C@@H]1CC[C@]2(C)C3=C(CC[C@@]12C)C1(C)CC[C@H](O)C(C)(C)C1CC3` (stereo partly drawn) as the compound, how does the relative growth read?
Answer: 1.15

Question: With `O=C(C[C@@H]1C=C[C@H](NC(=O)Cc2ccccn2)[C@@H](CO)O1)NCCc1ccncc1` as the compound, how does the relative growth read?
Answer: 1.15

Question: With `COC(=O)C1=CO[C@@H](O[C@@H]2O[C@H](CO)[C@@H](O)[C@H](O)[C@H]2O)[C@H]2[C@@H]1[C@H](OC(C)=O)C[C@]2(C)OC(C)=O` as the compound, how does the relative growth read?
Answer: 0.992

Question: Which relative growth does the source give for `O=C1CCC(=O)N1Nc1ccccn1` here?
Answer: 0.954

Question: With `COc1cc(OC)c(C(=O)CCCN2CCCC2)c(OC)c1.Cl` as the compound, how does the relative growth read?
Answer: 0.957

Question: Which relative growth does the source give for `CCOC(=O)CC(=O)c1ccn(C)n1` here?
Answer: 0.917

Question: Which relative growth does the source give for `O=C(Nc1ccc([N+](=O)[O-])cc1Cl)c1cc(Cl)ccc1O` here?
Answer: 1.06

Question: How did the relative growth turn out when `O=c1cc[nH]c(=O)[nH]1` was run?
Answer: 1.2

Question: How did the relative growth turn out when `CC(C)C#Cc1ccc2c(c1)O[C@@H](CN(C)C(=O)Cc1ccccn1)[C@H](C)CN([C@@H](C)CO)S2(=O)=O` was run?
Answer: 0.927

Question: For `Cc1cc(O)c(C(=O)N[C@@H](C(=O)N[C@@H]2C(=O)N3C(C(=O)O)=C(CSc4nnnn4C)CSC23)c2ccc(O)cc2)cn1` (stereo partly drawn), which relative growth is on record?
Answer: 0.136

Question: How did the relative growth turn out when `CN(C)CCCNC(=O)C[C@H]1C=C[C@H](NS(=O)(=O)c2ccccc2)[C@H](CO)O1` was run?
Answer: 1.13

Question: Which relative growth does the source give for `O=S1(=O)C[C@H](O)[C@@H](N2CCN(CCO)CC2)C1` here?
Answer: 1.02

Question: `COc1nn(C)cc1C(=O)Nc1ccon1` was tested. Which relative growth did it give?
Answer: 0.958

Question: How did the relative growth turn out when `CC(=O)NCCCC[C@@H]1NC(=O)[C@H]2C[C@@H](C(=O)NCCCCCNC(=O)CS)[C@@H](c3ccc(O)cc3)N2C1=O` was run?
Answer: 1.03

Question: `O=C(N/N=C/[C@H](O)[C@@H](O)[C@H](O)CO)c1ccccc1O` was tested. Which relative growth did it give?
Answer: 0.867

Question: Which relative growth does the source give for `COc1ccc(-c2cc(=O)c3c(OC)c(OC)c(OC)c(OC)c3o2)cc1OC` here?
Answer: 0.826

Question: Which relative growth does the source give for `OC[C@H]1O[C@@H](O[C@@H]2[C@@H](CO)O[C@](O)(CO)[C@H]2O)[C@H](O)[C@@H](O)[C@H]1O` here?
Answer: 1.05

Question: How did the relative growth turn out when `O=C(Cc1ccccn1)NCC[C@@H]1CC[C@H](NC(=O)CN2CCOCC2)[C@H](CO)O1` was run?
Answer: 0.908

Question: Which relative growth does the source give for `CC/C=C\C/C=C\C/C=C\C/C=C\C/C=C\C/C=C\CCC(=O)O` here?
Answer: 0.943

Question: `O=C(C[C@@H]1CC[C@H](NC(=O)CN2CCOCC2)[C@@H](CO)O1)NCCc1ccccc1` was tested. Which relative growth did it give?
Answer: 0.899

Question: Which relative growth does the source give for `CCCCC(CC)COc1ccc(-c2nc(-c3ccc(OC)cc3)nc(-c3ccc(OCC(CC)CCCC)cc3O)n2)c(O)c1` (stereo not drawn) here?
Answer: 1.12

Question: `Cl.OC(CCN1CCCC1)(c1ccccc1)C1CCCCC1` (stereo not drawn) was tested. Which relative growth did it give?
Answer: 0.944

Question: How did the relative growth turn out when `CCC(=O)N[C@@H]1C=C[C@H](CC(=O)OC)O[C@@H]1CO` was run?
Answer: 1.14

Question: Which relative growth does the source give for `Cc1nnc(Nc2cccc([C@H]3CCCN(C(=O)CN)C3)n2)s1` here?
Answer: 0.863

Question: With `CC[C@@](C)(Nc1n[nH]c(=O)[nH]c1=O)C(=O)O` as the compound, how does the relative growth read?
Answer: 1.04

Question: With `CCCNC(=O)N(C)C[C@@H]1Oc2cc(C#Cc3cccc(F)c3)ccc2S(=O)(=O)N([C@@H](C)CO)C[C@@H]1C` as the compound, how does the relative growth read?
Answer: 0.805

Question: How did the relative growth turn out when `Cn1cnc(CCNC(=O)C[C@@H]2CC[C@@H]3[C@H](COC[C@@H](O)CN3C(=O)Nc3ccc(Cl)cc3)O2)c1` was run?
Answer: 0.992

Question: How did the relative growth turn out when `CC(C)CCCC(C)C1CCC2C3CC[C@H]4CC(=O)CC[C@]4(C)C3CC[C@]12C` (stereo partly drawn) was run?
Answer: 0.981

Question: `C[C@@H]1CN([C@H](C)CO)S(=O)(=O)c2ccc(-c3cncnc3)cc2O[C@@H]1CN(C)C(=O)NC1CCCC1` was tested. Which relative growth did it give?
Answer: 1.19

Question: For `O=C(C[C@@H]1CC[C@@H]2[C@H](COC[C@@H](O)CN2S(=O)(=O)c2ccc(Cl)cc2)O1)NCCN1CCCCC1`, which relative growth is on record?
Answer: 1.19

Question: Which relative growth does the source give for `CC1(C)CC[C@]2(C)CC[C@]3(C)C(=CCC4[C@@]5(C)CC[C@H](OC(=O)c6ccccc6)C(C)(C)C5CC[C@]43C)C2C1` (stereo partly drawn) [beta-AMYRIN BENZOATE] here?
Answer: 1.03

Question: For `[N-]=[N+]=Nc1ccccc1[C@@H]1OC(c2ccc(OCCCO)cc2)=N[C@]1(Cc1ccccc1)C(=O)NC[C@@H](O)CO`, which relative growth is on record?
Answer: 0.801

Question: Which relative growth does the source give for `C[C@H](CO)N1C[C@H](C)[C@H](CN(C)C(=O)CN(C)C)Oc2cc(-c3ccc(C#N)cc3)ccc2S1(=O)=O` here?
Answer: 0.989

Question: `COCC(=O)Nc1ccc2c(c1)C(=O)N(C)[C@H]1CC[C@@H](CC(=O)NCc3ccc(OC)cc3)O[C@@H]1CO2` was tested. Which relative growth did it give?
Answer: 0.963

Question: Which relative growth does the source give for `C[C@H](CO)N1C[C@H](C)[C@@H](CN(C)C(=O)CN2CCOCC2)Oc2ncc(-c3cncnc3)cc2C1=O` here?
Answer: 1.09

Question: Which relative growth does the source give for `Cc1ccc(S(=O)(=O)N[C@@H]2CC[C@H](CC(=O)N3CCC(Cc4ccccc4)CC3)O[C@@H]2CO)cc1` here?
Answer: 0.6

Question: For `Cn1nnc2cc(C(=O)NC3CC3)ccc21`, which relative growth is on record?
Answer: 1.06

Question: With `O=C(C[C@@H]1C[C@H]2c3cc(NS(=O)(=O)c4ccc(F)cc4)ccc3O[C@H]2[C@H](CO)O1)N1CCOCC1` as the compound, how does the relative growth read?
Answer: 0.813

Question: For `CC(=O)NCCCC[C@@H]1NC(=O)[C@@H]2C[C@H](C(=O)NCCCC[N+](C)(C)C)[C@H](c3cccc(OCCO)c3)N2C1=O`, which relative growth is on record?
Answer: 1.13

— published antibiotic growth screens (doi:10.1038/s41589-023-01349-8)
